The target in test [1] is T1, DNA polymerase theta (Homo sapiens, UniProt O75417). In words: Displacement of tracer from recombinant Tb-labeled DNA polymerase theta (unknown origin) assessed as Kon using DNA as substrate preincubated for 30 mins followed by compound addition for 2 hrs by HTRF assay. On the technique in general: TR-FRET usually uses a lanthanide donor and a delayed reading to cut background.

Protein sequences, listed by entry. Tags and fused reporters are not part of them. Lines headed by an entry give the natural chain unless they say otherwise; changes in a name come on top.
UniProt O75417: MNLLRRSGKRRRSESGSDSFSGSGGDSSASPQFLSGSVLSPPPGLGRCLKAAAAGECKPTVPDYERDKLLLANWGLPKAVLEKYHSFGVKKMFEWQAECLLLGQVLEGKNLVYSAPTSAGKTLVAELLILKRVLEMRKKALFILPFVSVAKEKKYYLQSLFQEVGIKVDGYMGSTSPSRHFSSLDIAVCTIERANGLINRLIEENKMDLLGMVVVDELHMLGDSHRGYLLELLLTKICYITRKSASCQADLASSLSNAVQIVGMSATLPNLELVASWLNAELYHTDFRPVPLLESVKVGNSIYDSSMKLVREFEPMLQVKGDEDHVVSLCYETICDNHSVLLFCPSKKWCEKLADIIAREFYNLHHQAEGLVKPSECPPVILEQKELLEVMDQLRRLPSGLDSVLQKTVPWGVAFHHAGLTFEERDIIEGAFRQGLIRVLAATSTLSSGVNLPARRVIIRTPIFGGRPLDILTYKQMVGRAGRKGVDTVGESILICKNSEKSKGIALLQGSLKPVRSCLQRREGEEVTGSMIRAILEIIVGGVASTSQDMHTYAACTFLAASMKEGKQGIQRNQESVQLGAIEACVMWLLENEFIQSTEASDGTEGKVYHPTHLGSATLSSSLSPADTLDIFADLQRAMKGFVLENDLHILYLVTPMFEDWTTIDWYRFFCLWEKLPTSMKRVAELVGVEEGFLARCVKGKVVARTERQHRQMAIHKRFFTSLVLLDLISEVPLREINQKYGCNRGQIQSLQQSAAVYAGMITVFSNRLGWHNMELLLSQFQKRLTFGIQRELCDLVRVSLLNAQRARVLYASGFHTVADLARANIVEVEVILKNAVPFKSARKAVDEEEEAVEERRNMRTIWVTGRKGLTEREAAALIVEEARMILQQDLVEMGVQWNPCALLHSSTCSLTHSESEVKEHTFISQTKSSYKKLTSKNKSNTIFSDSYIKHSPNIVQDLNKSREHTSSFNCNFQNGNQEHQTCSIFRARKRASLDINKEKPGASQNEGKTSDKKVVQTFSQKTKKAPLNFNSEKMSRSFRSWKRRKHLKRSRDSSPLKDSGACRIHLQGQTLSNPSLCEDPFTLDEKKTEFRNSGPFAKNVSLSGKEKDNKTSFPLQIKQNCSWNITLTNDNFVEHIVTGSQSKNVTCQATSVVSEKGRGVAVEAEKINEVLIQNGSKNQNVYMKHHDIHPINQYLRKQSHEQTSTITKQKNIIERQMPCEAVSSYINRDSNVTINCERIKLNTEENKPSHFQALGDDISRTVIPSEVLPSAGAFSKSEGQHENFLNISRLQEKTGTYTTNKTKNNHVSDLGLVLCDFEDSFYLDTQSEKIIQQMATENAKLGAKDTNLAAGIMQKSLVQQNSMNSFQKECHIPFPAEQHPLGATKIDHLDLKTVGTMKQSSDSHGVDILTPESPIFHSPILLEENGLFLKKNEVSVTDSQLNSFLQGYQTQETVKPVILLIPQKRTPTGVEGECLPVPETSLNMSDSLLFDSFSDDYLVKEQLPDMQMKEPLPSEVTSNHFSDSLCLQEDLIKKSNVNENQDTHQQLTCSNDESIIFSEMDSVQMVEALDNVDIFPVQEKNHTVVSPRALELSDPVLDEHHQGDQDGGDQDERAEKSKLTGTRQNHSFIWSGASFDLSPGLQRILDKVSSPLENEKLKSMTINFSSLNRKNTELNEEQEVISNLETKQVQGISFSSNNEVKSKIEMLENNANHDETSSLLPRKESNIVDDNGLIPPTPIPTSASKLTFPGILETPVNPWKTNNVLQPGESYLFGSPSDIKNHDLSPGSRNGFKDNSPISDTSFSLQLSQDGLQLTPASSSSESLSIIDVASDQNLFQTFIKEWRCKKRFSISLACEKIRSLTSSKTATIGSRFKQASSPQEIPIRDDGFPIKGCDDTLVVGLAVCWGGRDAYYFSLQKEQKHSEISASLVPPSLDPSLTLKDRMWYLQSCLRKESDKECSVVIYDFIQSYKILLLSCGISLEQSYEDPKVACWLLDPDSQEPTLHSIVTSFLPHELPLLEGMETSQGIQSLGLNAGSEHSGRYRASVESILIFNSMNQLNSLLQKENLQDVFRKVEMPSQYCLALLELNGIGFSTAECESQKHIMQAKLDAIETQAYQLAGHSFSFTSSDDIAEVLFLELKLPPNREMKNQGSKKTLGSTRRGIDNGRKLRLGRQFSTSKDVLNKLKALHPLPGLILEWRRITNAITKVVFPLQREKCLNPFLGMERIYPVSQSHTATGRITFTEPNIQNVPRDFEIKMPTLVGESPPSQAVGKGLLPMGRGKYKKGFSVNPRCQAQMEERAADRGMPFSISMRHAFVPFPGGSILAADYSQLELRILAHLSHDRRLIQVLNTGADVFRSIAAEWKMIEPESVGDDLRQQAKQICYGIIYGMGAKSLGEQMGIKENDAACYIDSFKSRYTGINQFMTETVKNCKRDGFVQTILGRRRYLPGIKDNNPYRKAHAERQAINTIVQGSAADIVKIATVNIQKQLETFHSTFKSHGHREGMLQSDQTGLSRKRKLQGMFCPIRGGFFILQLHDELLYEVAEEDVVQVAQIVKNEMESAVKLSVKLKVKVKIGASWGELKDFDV

For test [2], the target named is T1, DNA polymerase theta. Put plainly: Displacement of tracer from recombinant Tb-labeled DNA polymerase theta (unknown origin) assessed as Koff using DNA as substrate preincubated for 30 mins followed by compound addition for 2 hrs by HTRF assay.

Structures are written as SMILES.

With `Cc1cccc(N(C)C(=O)[C@@H]2C[C@H](O)CN2c2nc(C)cc(C)c2C#N)c1`, the values for the K in test [1] and in test [2] were 1.06 10^7/M/s and 0.17 s⁻¹, respectively.

Consider `Cc1cccc(N(C)C(=O)[C@@H]2[C@H](O)CCN2c2nc(C)cc(C(F)(F)F)c2C#N)c1`, for which the K in test [1] was 1.85 10^7/M/s; in test [2] it was 0.082 s⁻¹.

`Cc1cccc(N(C)C(=O)[C@@H]2C[C@H](O)CN2c2nc(C)cc(C(F)(F)F)c2C#N)c1`: the K in test [1] is 4.05 10^7/M/s; in test [2], 0.32 s⁻¹.

For the molecule `Cc1cccc(N(C)C(=O)[C@@H]2[C@@H](O)CCN2c2nc(C)cc(C(F)(F)F)c2C#N)c1`, the K is 6.69 10^7/M/s in test [1] and 0.16 s⁻¹ in test [2].

For the origin of these results see ChEMBL document CHEMBL5108060, “Discovery, Characterization, and Structure-Based Optimization of Small-Molecule In Vitro and In Vivo Probes for Human DNA Polymerase Theta” (J Med Chem, 2022).
